Laboratory results published in publication PMC10135263, “Comparison of Intravenous Microdialysis and Standard Plasma Sampling for Monitoring of Vancomycin and Meropenem Plasma Concentrations—An Experimental Porcine Study” (Antibiotics, 2023).

Legend:
[1] = Pharmacokinetics from continuous intravenous microdialysis sampling (subclavian vein), free unbound concentrations; conditions: vancomycin 1 g iv infused over 100 min, co-administered with meropenem, eight female pigs, 30 mm membrane, 20 kD cut-off, 1 μL/min, UHPLC-MS/MS, recovery-corrected, mean (95% confidence interval)
[2] = in vitro, human plasma mixed with fixed vancomycin concentrations, intravenous microdialysis sampling; cited from earlier work
Source text: For vancomycin, two studies, one in vitro and one in vivo, have evaluated the feasibility of intravenous microdialysis. The in vitro study used human plasma mixed with fixed vancomycin concentrations to evaluate the feasibility of intravenous microdialysis sampling. Compared to our study, they found a higher relative recovery (91% ± 3.7%), and concluded good feasibility, as a steady relative recovery was found. The apparent differences between the in vitro study design and the present porcine in vivo design may readily explain the different findings. The in vivo study conducted ...

For `CN[C@H](CC(C)C)C(=O)N[C@H]1C(=O)N[C@@H](CC(N)=O)C(=O)N[C@H]2C(=O)N[C@H]3C(=O)N[C@H](C(=O)N[C@H](C(=O)O)c4cc(O)cc(O)c4-c4cc3ccc4O)[C@H](O)c3ccc(c(Cl)c3)Oc3cc2cc(c3O[C@@H]2O[C@H](CO)[C@@H](O)[C@H](O)[C@H]2O[C@H]2C[C@](C)(N)[C@H](O)[C@H](C)O2)Oc2ccc(cc2Cl)[C@H]1O` [Vancomycin, vancomycin], the “AUC0–8h” value [1] is listed as 2874 (1639; 4109) min µg/mL and the Relative recovery [2] is listed as 91% ± 3.7.
